Test results taken from PubChem BioAssay (NCI).
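48-hour exposure; five concentrations; linearly interpolated endpoints. Here, GI50 denotes the concentration required for 50% inhibition of growth. TGI is the concentration that stops growth completely.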

Columns and labels:
Assay in all cases: DTP human tumour cell line panel, 48 h
[1] = system: NCI-H23 lung
[2] = system: NCI-H322M lung
[3] = system: NCI-H460 lung
[4] = system: NCI-H522 lung
[5] = system: NCI/ADR-RES ovarian
[6] = system: OVCAR-3 ovarian
[7] = system: OVCAR-4 ovarian
[8] = system: OVCAR-5 ovarian
[9] = system: OVCAR-8 ovarian
[10] = system: PC-3 prostate
[11] = system: RPMI-8226 leukemia
[12] = system: RXF 393 renal
[13] = system: SF-268 CNS
[14] = system: SF-295 CNS
[15] = system: SF-539 CNS
[16] = system: SK-MEL-2 melanoma
[17] = system: SK-MEL-28 melanoma
[18] = system: SK-MEL-5 melanoma
[19] = system: SK-OV-3 ovarian
[20] = system: SN12C renal
[21] = system: SNB-19 CNS
[22] = system: SNB-75 CNS
[23] = system: SR leukemia
[24] = system: SW-620 colon
[25] = system: T-47D breast
[26] = system: TK-10 renal
[27] = system: U251 CNS
[28] = system: UACC-257 melanoma
[29] = system: UACC-62 melanoma
[30] = system: UO-31 renal

CCCCCCCCCCCCCCCC[C@@H]1C[N+](C)(C)CCO[P@](C)(=O)O1
GI50 [1]: 13.3 µM
TGI [1]: 26.5 µM
GI50 [2]: 15 µM
TGI [2]: 28.6 µM
GI50 [3]: 15 µM
TGI [3]: 35.3 µM
GI50 [4]: 3.69 µM
TGI [4]: 17.1 µM
GI50 [5]: 14 µM
TGI [5]: 33.1 µM
GI50 [6]: 10.7 µM
TGI [6]: 22.6 µM
GI50 [7]: 5.78 µM
TGI [7]: 18.5 µM
GI50 [8]: 11.8 µM
TGI [8]: 24.2 µM
GI50 [9]: 12.2 µM
TGI [9]: 27.5 µM
GI50 [10]: 4.55 µM
TGI [10]: 16.1 µM
GI50 [11]: 2.89 µM
TGI [11]: 12.8 µM
GI50 [12]: 10.9 µM
TGI [12]: 24.5 µM
GI50 [13]: 12.3 µM
TGI [13]: 25.8 µM
GI50 [14]: 14.3 µM
TGI [14]: 30.7 µM
GI50 [15]: 11.8 µM
TGI [15]: 24.4 µM
GI50 [16]: 15.3 µM
TGI [16]: 29.4 µM
GI50 [17]: 14.1 µM
TGI [17]: 27.1 µM
GI50 [18]: 9.21 µM
TGI [18]: 21.4 µM
GI50 [19]: 13.9 µM
TGI [19]: 26.8 µM
GI50 [20]: 18.2 µM
TGI [20]: 35.1 µM
GI50 [21]: 14.5 µM
TGI [21]: 28.2 µM
GI50 [22]: 11.8 µM
TGI [22]: 24.4 µM
GI50 [23]: 4.43 µM
TGI [23]: 19.4 µM
GI50 [24]: 19.1 µM
TGI [24]: 47.1 µM
GI50 [25]: 2.91 µM
TGI [25]: 16 µM
GI50 [26]: 11.5 µM
TGI [26]: 23.9 µM
GI50 [27]: 14.6 µM
TGI [27]: 28.5 µM
GI50 [28]: 10.8 µM
TGI [28]: 23.8 µM
GI50 [29]: 11 µM
TGI [29]: 30 µM
GI50 [30]: 14.3 µM
TGI [30]: 27.5 µM
